Laboratory results taken from ChEMBL document CHEMBL4425088, “PDEStrIAn: A Phosphodiesterase Structure and Ligand Interaction Annotated Database As a Tool for Structure-Based Drug Design” (J Med Chem, 2016).

Amino acid sequences for entries named in this document (tags omitted). A change or cut given only in a name is not applied to a line headed by its entry.
UniProt Q08499: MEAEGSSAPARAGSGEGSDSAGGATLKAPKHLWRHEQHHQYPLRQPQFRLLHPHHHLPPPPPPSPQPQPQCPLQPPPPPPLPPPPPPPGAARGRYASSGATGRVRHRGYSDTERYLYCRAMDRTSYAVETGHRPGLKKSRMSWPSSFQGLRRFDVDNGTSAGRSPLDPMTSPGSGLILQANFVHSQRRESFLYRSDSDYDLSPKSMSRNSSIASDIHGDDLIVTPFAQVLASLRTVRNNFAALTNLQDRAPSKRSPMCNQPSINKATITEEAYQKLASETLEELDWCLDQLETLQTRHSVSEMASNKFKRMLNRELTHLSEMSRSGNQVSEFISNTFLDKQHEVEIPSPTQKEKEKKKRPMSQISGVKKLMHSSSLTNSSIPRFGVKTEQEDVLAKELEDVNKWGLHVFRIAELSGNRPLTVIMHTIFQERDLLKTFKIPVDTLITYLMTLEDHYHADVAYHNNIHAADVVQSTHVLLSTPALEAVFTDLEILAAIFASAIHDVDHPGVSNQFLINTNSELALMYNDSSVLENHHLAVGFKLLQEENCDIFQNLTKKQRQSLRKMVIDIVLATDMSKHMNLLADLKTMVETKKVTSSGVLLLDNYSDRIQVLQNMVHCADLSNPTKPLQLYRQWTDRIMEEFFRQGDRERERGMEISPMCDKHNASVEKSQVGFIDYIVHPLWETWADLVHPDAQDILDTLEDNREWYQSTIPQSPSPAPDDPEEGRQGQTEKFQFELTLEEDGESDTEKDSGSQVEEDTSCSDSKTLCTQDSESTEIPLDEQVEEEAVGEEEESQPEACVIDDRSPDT

Target: 3',5'-cyclic-AMP phosphodiesterase 4D (Homo sapiens, UniProt Q08499)
Assay: Inhibition of human His-tagged PDE4D catalytic domain expressed in Escherichia coli BL21-CodonPlus(DE3) cells using [3H]cAMP or [3H]cGMP as substrate incubated for 30 mins by scintillation counting method

Which IC50 does the source give for `CCOC(=O)c1c(C)nn(-c2ccccc2)c1C` here?
The IC50 was 270 nM.
